# scFv variants of Ab-14 (light chain) against a SARS-CoV-2 spike peptide

Data: MIT Lincoln Laboratory AlphaSeq set, Engelhart et al. 2022, doi:10.1038/s41597-022-01779-4, as distributed in FLAb.

Binding partner: SARS-CoV-2 spike HR2 peptide, sequence PDVDLGDISGINAS.

Each scFv is VH, the linker GGGGSGGGGSGGGGS, VL, as in the parent Ab-14, and differs from it in the CDRs of the light chain only.
VH: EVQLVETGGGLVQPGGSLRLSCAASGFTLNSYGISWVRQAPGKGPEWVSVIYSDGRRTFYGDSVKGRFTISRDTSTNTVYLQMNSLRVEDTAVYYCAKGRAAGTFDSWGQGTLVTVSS
VL: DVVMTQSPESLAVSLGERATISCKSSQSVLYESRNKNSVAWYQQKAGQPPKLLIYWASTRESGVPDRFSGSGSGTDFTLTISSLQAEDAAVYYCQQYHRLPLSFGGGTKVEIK

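Library AAYL50 holds single substitutions and randomly drawn double and triple substitutions in the CDRs. The assay is AlphaSeq: two haploid yeast populations carry antibody and antigen on their surface. The frequency of each diploid, read from paired DNA barcodes, reflects how well the two displayed proteins bind. A regression on co-assayed BCL2-family reference pairs converts the normalised counts of each replicate to an apparent Kd. There are three technical replicates.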

Positions count from residue 1 of the parent VL; S26A puts A in place of S.
Values are log10 of the apparent Kd in nM; lower means stronger binding.
The mean shown is taken over the replicates in which the pair was detected.
"ND" marks a missing value. The strain was present, yet no cells mated with the target were sequenced in that replicate, which points to weak or no binding.
For reference, the parent read 0.65 as the reference entry and 1.68 as a member of this library.

changes	replicates, log10 nM	mean, log10 nM	empty controls
S26A/A40W/L102K	ND ND ND	ND	2 of 9 (3.23)
S28D/Y31I/R34P	1.74 1.80 1.89	1.81	6 of 9 (4.99)
S28E/E61I/Q96R	ND ND ND	ND	2 of 9 (4.43)
S26A/Y31E/E61Q	0.83 0.99 0.90	0.91	7 of 9 (4.72)
S33C/S38A/P101T	4.02 ND ND	4.02	0 of 9
K24V/Y31M/E32M	2.08 2.28 2.37	2.24	0 of 9
K24E/K36T	0.46 0.24 1.71	0.80	0 of 9
K24H/L30G/N35M	0.87 0.91 0.96	0.91	3 of 9 (4.85)
Y31T/S33E/V39R	ND ND ND	ND	1 of 9 (3.34)
S26M/N37V/L100G	ND ND ND	ND	0 of 9
Y31L/S33F/Q95N	ND ND ND	ND	0 of 9
S28P/N35F/N37D	1.55 1.58 1.90	1.68	2 of 9 (3.90)
K36L/H98A/L102S	ND ND ND	ND	1 of 9 (3.01)
A40I/Q95I/L100Q	ND ND ND	ND	0 of 9
Y31D/R34T/L100D	ND ND 3.43	3.43	2 of 9 (3.89)
L30N/E32A/N35A	ND ND ND	ND	0 of 9
S38R/W56Y/R60P	3.20 2.84 3.70	3.25	1 of 9 (3.53)
S33I/S58T/S103W	ND ND ND	ND	0 of 9
V29D/W56Q/H98W	-0.49 -0.11 -0.38	-0.33	5 of 9 (4.97)
K24Y/Y31K/Q95V	ND ND ND	ND	0 of 9
S58D/L100H/P101W	0.63 0.70 0.67	0.67	0 of 9
L30A	0.57 0.75 0.70	0.67	3 of 9 (3.96)
W56E/S58T/R60N	0.47 0.80 0.49	0.58	0 of 9
N37F/Q96R/Y97K	1.57 1.60 1.43	1.53	4 of 9 (4.13)
Q27I/N37R/A57V	3.83 4.07 4.08	3.99	2 of 9 (4.17)
S25G/S62I/Q96V	ND 2.36 2.47	2.42	0 of 9
E32P/P101I/S103F	2.16 2.22 1.88	2.09	1 of 9 (4.72)
E32T/V39A/A40R	ND ND ND	ND	2 of 9 (4.06)
K36M/S58A/S62L	2.13 2.68 2.47	2.43	4 of 9 (4.05)
Q27M/A57K/E61H	4.67 3.62 3.70	4.00	6 of 9 (4.43)
S25E/V39E/T59E	ND ND ND	ND	0 of 9

Empty control strains, which show no peptide, gave a signal in 18% of pairings with library AAYL50; the median was 4.19 and 95% of these signals were weaker than 2.99. No background was subtracted. For each scFv, signals with the empty controls are counted beside the result, with their mean in brackets.